Data from ChEMBL document CHEMBL1125007 (J Med Chem, 1990).

Tests used:
[1] = Relative cytotoxic potency given as Hypersensitivity ratio of (IC50 for AA8 cell line) to (IC50 for P388 leukemia cell line)
[2] = tested on: P388; experiment: Cytotoxicity against P388 leukemia cell line; type: functional, cell-based, Mus musculus
How it was run: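 P388 murine leukemia cells kept in log phase in RPMI 1640 with 10% fetal calf serum. Drug was present in 96-well microcultures for the whole 72 h growth period. Final cell density was read by a slightly modified MTT method. IC50 is the nominal concentration cutting density to 50% of controls, with eight control cultures per plate.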

| Compound | HF [1] | IC50 [2] [µM] |
| --- | --- | --- |
| Cc1ccc(N(CCCl)CCCl)cc1 | 46 | – |
| CSc1ccc(N(CCCl)CCCl)cc1 | 33 | 1.38 |
| CS(=O)(=O)c1ccc(N(CCCl)CCCl)cc1 | 3.5 | 39 |
| COc1ccc(N(CCCl)CCCl)cc1 | 42 | – |
